Values quoted from earlier work in paper PMC3152616 (Peptides, 2011).
Where two headings read alike, the source gives them in different places.

Target: T1, BRS-3 (Homo sapiens, UniProt P32247)
T1 sequence (P32247 1-399): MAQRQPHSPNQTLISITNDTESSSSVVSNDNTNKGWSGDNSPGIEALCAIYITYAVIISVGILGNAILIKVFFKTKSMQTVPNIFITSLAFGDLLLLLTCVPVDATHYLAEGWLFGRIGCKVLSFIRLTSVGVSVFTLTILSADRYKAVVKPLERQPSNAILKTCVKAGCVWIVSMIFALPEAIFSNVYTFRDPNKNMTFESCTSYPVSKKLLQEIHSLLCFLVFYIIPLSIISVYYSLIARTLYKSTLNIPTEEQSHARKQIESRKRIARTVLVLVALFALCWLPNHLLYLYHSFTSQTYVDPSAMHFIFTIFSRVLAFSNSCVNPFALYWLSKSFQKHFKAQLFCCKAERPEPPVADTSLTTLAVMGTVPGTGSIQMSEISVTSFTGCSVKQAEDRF
Details: read-out: IC50, BRS-3, cited from earlier work

For “Ac-Phe-Trp-Ala-His(γBzl)-Nip-Gly-Arg-NH2”, the IC50 (ref 2, 28) is listed as 1300 nM and the IC50 (ref 26, 27) is listed as 80 nM.
